Measured values as given in US5854081A, “Stable expression of human A2B adenosine receptors, and assays employing the same” (The University of Patent Foundation, priority 1996, dated 1998).

System: native-A1 receptors
Test: Effect of GTPγS on agonist radioligand binding to native-A1

Q: For `Nc1nc2c(ncn2[C@@H]2O[C@H](COP(=O)(O)OP(=O)(O)OP(O)(O)=S)[C@@H](O)[C@H]2O)c(=O)[nH]1` [GTPγS], which “reduction in number of high affinity agonist (^125 I-ABA) binding sites by GTPγS” value is on record?
A: The value was “large reduction”.
